The text below walks through data of US11655216B2 (priority 2016, dated 2023).

Sequences of proteins named here, by UniProt entry; tags and fusion partners are left off. Residues count along the entry.
UniProt Q13133, 209-447 limits assumed: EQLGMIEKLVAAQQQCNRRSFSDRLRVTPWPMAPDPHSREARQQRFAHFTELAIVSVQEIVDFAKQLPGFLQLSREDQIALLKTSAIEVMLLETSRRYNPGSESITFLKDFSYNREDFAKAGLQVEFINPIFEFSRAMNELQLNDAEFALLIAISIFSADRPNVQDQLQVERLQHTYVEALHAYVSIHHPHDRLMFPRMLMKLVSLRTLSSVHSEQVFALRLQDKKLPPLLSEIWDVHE

Each structure is given as a SMILES string.

In the assay the target is T1, glutathione-S-transferase (GST) tagged LXRalpha LBD (ligand binding domain) (Homo sapiens, UniProt Q13133).
T1 construct: purchased Invitrogen pv4655
Put plainly: biochemical. It is filed as biochemical. The note with it: for EC50: LXR alpha IP; for LXR alpha actiivty at max dose: efficacy (% Emax) in relation to reference dual agonist T0901317. As for the experimental part:
While running the LanthaScreen™ TR-FRET Liver X Receptor Coactivator Assay, LXR alpha-LBD or LXR beta-LBD was added to ligand test compounds followed by addition of a mixture of a fluorescein-labelled coactivator peptide and terbium-conjugated anti-GST antibody. After an incubation period at room temperature, TR-FRET (time-resolved fluorescence resonance energy transfer) was measured using a filter-based instrument capable of TR-FRET, e.g. PerkinElmer Envision.

[1] abbreviates: potency (Inflection Point), compound-induced co-activator recruitment, TR-FRET.

The molecule `CCc1nc(OCCCCC2CCN(C(=O)C(O)(c3ccccc3)C(F)(F)F)CC2)ccc1C(=O)N(C)C` (stereo not drawn) [Example 5-2, 2-ethyl-N,N-dimethyl-6-(4-(1-(3,3,3-trifluoro-2-hydroxy-2-phenylpropanoyl)piperidin-4-yl)butoxyl)nicotinamide] returned an EC50 under setting [1] of 2.51 µM. The maximal response (Emax) (read-out: LXR alpha actiivty at max dose, efficacy (% Emax) in relation to reference dual agonist T0901317) was 32%.

Consider `CN(C)C(=O)c1ccc(OCCCCC2CCN(C(=O)C(O)(c3ccccc3)C(F)(F)F)CC2)nc1Cl` (single isomer, unassigned) [Example 3-17, (S or R)-2-chloro-N,N-dimethyl-6-(4-(1-(3,3,3-trifluoro-2-hydroxy-2-phenylpropanoyl)piperidin-4-yl)butoxy)nicotinamide], for which the “LXR alpha actiivty at max dose” value came out at 41%. In addition, a half-maximal effect under setting [1] (EC50) was put at 0.334 µM.

Take `CN(C)C(=O)c1ccc(OCCCCC2CCN(C(=O)C(O)(c3ccccc3)C(F)(F)F)CC2)nc1Cl` (single isomer, unassigned) [Example 3-16, (R or S)-2-chloro-N,N-dimethyl-6-(4-(1-(3,3,3-trifluoro-2-hydroxy-2-phenylpropanoyl)piperidin-4-yl)butoxy)nicotinamide]: the “LXR alpha actiivty at max dose” value was 5%. Also, the “LXR alpha IP” value under setting [1] is on record as “No IP”.

The term EC50 denotes the midpoint of the concentration-response curve. The low end stands for higher potency in that assay, the high end for lower potency in that assay. The Emax is the greatest response seen or fitted, relative to the assay's reference.
